From ChEMBL document CHEMBL6114984, “Discovery of 2,4-diaminopyrimidine derivatives as potent inhibitors of FAK capable of activating the Hippo pathway for the treatment of esophageal squamous cell carcinoma” (Eur J Med Chem, 2025)
The source made the active and inactive calls. The calls are words filed in the database; no cut-off is given here.

The chains behind the UniProt entries cited, without tags or fusion partners.
UniProt P49023, whole entry: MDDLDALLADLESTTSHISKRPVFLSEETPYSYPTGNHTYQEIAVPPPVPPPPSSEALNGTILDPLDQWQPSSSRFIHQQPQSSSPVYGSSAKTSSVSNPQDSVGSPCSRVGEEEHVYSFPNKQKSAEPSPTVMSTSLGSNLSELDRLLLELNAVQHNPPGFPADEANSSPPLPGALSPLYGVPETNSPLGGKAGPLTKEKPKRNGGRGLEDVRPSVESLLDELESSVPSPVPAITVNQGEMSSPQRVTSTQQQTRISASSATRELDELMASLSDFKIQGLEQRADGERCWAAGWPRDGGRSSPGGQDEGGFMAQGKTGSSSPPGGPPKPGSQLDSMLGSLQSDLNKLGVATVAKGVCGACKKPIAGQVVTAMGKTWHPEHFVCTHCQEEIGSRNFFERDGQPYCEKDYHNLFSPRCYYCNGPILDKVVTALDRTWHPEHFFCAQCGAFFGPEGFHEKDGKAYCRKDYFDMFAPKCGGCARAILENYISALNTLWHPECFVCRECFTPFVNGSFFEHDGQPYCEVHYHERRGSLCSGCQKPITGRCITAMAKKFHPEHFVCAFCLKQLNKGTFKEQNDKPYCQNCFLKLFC
UniProt Q14289, whole entry, looked up: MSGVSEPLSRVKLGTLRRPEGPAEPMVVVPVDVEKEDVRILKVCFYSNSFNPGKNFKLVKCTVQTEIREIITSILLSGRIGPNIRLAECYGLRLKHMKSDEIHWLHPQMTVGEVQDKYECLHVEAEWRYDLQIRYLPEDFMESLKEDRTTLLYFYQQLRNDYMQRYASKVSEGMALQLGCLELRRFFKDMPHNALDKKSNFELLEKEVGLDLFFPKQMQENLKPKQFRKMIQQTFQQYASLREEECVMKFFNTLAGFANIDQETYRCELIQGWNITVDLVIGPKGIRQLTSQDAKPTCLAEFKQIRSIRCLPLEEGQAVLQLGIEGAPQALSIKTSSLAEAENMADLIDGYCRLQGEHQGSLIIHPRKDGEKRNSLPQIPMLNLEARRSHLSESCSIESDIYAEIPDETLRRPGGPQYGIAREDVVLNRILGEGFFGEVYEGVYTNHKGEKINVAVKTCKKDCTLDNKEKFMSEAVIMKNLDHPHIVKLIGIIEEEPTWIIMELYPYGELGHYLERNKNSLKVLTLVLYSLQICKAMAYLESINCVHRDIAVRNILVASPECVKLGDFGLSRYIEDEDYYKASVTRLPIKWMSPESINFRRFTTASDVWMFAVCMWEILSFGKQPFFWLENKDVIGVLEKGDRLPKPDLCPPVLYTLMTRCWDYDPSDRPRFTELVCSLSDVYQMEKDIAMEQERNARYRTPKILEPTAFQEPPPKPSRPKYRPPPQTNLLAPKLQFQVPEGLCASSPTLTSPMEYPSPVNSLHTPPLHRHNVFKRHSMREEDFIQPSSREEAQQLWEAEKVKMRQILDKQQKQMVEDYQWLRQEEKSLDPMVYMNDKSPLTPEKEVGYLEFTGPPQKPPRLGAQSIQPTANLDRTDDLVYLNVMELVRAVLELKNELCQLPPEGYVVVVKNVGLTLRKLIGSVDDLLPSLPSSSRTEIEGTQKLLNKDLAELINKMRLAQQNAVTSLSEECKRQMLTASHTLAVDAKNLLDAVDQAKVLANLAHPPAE

Legend:
[1] = target: Paxillin (Homo sapiens) (UniProt P49023); settings: KYSE-30, dose 400.0 nmol/L, time 48.0 hrs
[2] = target: Protein-tyrosine kinase 2-beta (Homo sapiens) (UniProt Q14289); settings: KYSE-450, dose 400.0 nmol/L, time 48.0 hrs
[3] = target: Paxillin (Homo sapiens) (UniProt P49023); settings: KYSE-450, dose 400.0 nmol/L, time 48.0 hrs
[4] = target: Protein-tyrosine kinase 2-beta (Homo sapiens) (UniProt Q14289); settings: KYSE-30, dose 400.0 nmol/L, time 48.0 hrs
[5] = system: KYSE-30; settings: Homo sapiens, dose 400.0 nmol/L, time 48.0 hrs
[6] = system: KYSE-450; settings: Homo sapiens, dose 400.0 nmol/L, time 48.0 hrs
[7] = system: KYSE-30; settings: Homo sapiens, dose 400.0 nmol/L, time 48.0 hrs; remark: listed apart in the source
[8] = system: KYSE-30; settings: Homo sapiens, dose 400.0 nmol/L, time 48.0 hrs; remark: listed apart in the source
[9] = system: KYSE-450; settings: Homo sapiens, dose 400.0 nmol/L, time 48.0 hrs; remark: listed apart in the source
[10] = system: KYSE-450; settings: Homo sapiens, dose 400.0 nmol/L, time 48.0 hrs; remark: listed apart in the source

Row | inhibition [1] | inhibition [2] | inhibition [3] | inhibition [4] | Structure (SMILES) | inhibition [5] | inhibition [6] | inhibition [7] | inhibition [8] | inhibition [9] | inhibition [10]
1 | Active | Active | Active | Active | CCN1CCN(C(=O)Nc2ccc(Nc3ncc(Cl)c(Nc4ccccc4C(=O)NC)n3)cc2)CC1 |  |  |  |  |  | 
2 |  |  |  |  | CNC(=O)c1ccccc1Nc1nc(Nc2ccc(N3CCOCC3)cc2OC)ncc1Cl | inactive | inactive | inactive | inactive | inactive | inactive
